Measured values as given in US10828301B2, “2,4-pyrimidinediamine compounds and their uses” (Rigel Pharmaceuticals, Inc, priority 2002, dated 2020).
pIC50: −log10 of the molar value.

What follows are molecules tested on FcεR1-mediated degranulation in mast cells (assay: FcεRI-mediated (anti-IgE induced) degranulation assay in mast cells). Settings: Mast cell; range stated for the whole listed group of compounds; read-out: inhibition of FcεR1-mediated degranulation in mast cells (IC50s).
Assay type: cell-based

Question: How did the pIC50 turn out when `O=C1COc2ccc(Nc3nc(Nc4cccc(O)c4)ncc3F)cc2N1` [Compound R908702, N4-(1,4-Benzoxazine-3-on-6-yl)-5-fluoro-N2-(3-hydroxyphenyl)-2,4-pyrimidinediamine] was run?
Answer: The pIC50 was 5.78 to 7.52.

Question: How did the pIC50 turn out when `O=C1COc2ccc(Nc3ncc(F)c(Nc4cccc(O)c4)n3)cc2N1` [Compound R909268, N2-(1,4-Benzoxazin-3-on-6-yl)-5-fluoro-N4-(3-hydroxyphenyl)-2,4-pyrimidinediamine] was run?
Answer: Its pIC50 is 5.78 to 7.52.

Question: How did the pIC50 turn out when `Nc1cccc(Nc2ncc(F)c(Nc3cccc(N)c3)n2)c1` [Compound R921302, N2,N4-Bis(3-aminophenyl)-5-fluoro-2,4-pyrimidinediamine] was run?
Answer: Its pIC50 is 5.78 to 7.52.

Question: How did the pIC50 turn out when `CC(C)(CO)NC(=O)c1cc2cc(Nc3ncc(F)c(Nc4cccc(O)c4)n3)ccc2o1` [Compound R926715, 5-Fluoro-N2-[2-(2-hydroxy-1,1-dimethylethylamino)carbonylbenzofuran-5-yl]-N4-(3-hydroxyphenyl)-2,4-pyrimidinediamine] was run?
Answer: Its pIC50 is 5.78 to 7.52.

Question: With `COc1cc(Nc2ncc(F)c(Nc3ccc4c(c3)OCCO4)n2)cc(OC)c1` [Compound R926791, N2-(3,5-Dimethoxyphenyl)-N4-(3,4-ethylenedioxyphenyl)-5-fluoro-2,4-pyrimidinediamine] as the molecule, how does the pIC50 read?
Answer: The pIC50 was 5.78 to 7.52.

Question: `Fc1cnc(Nc2cccc(-c3cnco3)c2)nc1Nc1ccc2c(c1)OCCO2` [Compound R926813, N4-(3,4-Ethylenedioxyphenyl)-5-fluoro-N2-[3-(1,3-oxazol-5-yl)phenyl]-2,4-pyrimidinediamine] was tested. Which pIC50 did it give?
Answer: Its pIC50 is 5.78 to 7.52.

Question: How did the pIC50 turn out when `CC(C)(C)C(=O)Nc1cccc(Nc2ncc(F)c(Nc3cccc(O)c3)n2)c1` [Compound R940275, N2-(3-tert-Butylcarbonylaminophenyl)-N4-(3-hydroxyphenyl)-5-fluoro-2,4-pyrimidinediamine] was run?
Answer: The pIC50 was 5.78 to 7.52.

Question: How did the pIC50 turn out when `OCCOc1ccc(Nc2ncc(F)c(Nc3ccc4c(c3)OCCO4)n2)cc1` [Compound R945144, N4-(3,4-Ethylenedioxyphenyl)-5-fluoro-N2-[4-(2-hydroxyethyloxy)phenyl]-2,4-pyrimidinediamine] was run?
Answer: The pIC50 was 5.78 to 7.52.
